One molecule from US7855294B2, “Cycloalkanopyridine derivative” (Banyu Pharmaceutical Co., Ltd., priority 2004, dated 2010) can be followed below.

Protein sequences, listed by entry. Tags and fused reporters are not part of them. Lines headed by an entry give the natural chain unless they say otherwise; changes in a name come on top.
UniProt P41146: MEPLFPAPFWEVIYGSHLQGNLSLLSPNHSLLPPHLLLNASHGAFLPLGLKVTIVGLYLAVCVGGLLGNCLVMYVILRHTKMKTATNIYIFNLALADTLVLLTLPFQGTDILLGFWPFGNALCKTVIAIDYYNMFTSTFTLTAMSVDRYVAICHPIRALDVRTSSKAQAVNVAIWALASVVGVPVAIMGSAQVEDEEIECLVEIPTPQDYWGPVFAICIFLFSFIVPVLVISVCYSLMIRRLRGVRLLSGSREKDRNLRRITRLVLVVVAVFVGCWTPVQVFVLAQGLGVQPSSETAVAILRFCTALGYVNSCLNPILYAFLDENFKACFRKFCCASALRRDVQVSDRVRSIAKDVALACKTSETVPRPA

SMILES strings stand for the structures.

Assay [1] has as its target T1, nociceptin receptor ORL1 (Homo sapiens, UniProt P41146). The experiment in a line: Antagonism against nociceptin-elicited G protein activation (GTPγ[35S] binding, CHO/ORL1 membrane). It counts as biochemical. On the set-up: expressed in transfected cells; membrane preparation. Here is the method:
CHO cells which stably expressed a nociceptin receptor ORL1 were used to investigate the action of each test compound against nociceptin-elicited G protein activation. A membrane prepared from the CHO/ORL1 cells, 50 nM nociceptin, 200 pM GTPγ[^35S] (by NEN), 1.5 mg of wheat germ agglutinin SPA beads (by Amersham Pharmacia) and each test compound were mixed in a GDP buffer (20 mM Hepes, 100 mM sodium chloride, 10 mM magnesium chloride, 1 mM EDTA, 5 μM GDP, pH 7.4) and incubated at 25° C. for 150 minutes, and then the radioactivity of the culture was determined.
For orientation: Binding of GTPγS marks nucleotide exchange on a G protein.

Assay [2] has as its target T1, nociceptin receptor ORL1. Description: Nociceptin receptor binding inhibition assay ([125I]Tyr14-Nociceptin, CHO/ORL1 membrane fractions, SPA beads). On the set-up: expressed in transfected cells; membrane fractions. Here is the method:
A cDNA that codes for a human nociceptin receptor gene was cloned into an expression vector pCR3 (by Invitrogen) to prepare pCR3/ORL1. Next, pCR3/ORL1 was transfected in CHO cells using a transfectam (by Nippongene) to obtain a stable expression strain (CHO/ORL1 cells) having resistance against 1 mg/ml G418. Membrane fractions were prepared from this stable expression strain to carry out a receptor binding assay. 11 μg of the membrane fraction, 50 pM [^125I]Tyr^14-Nociceptin (by Amersham Pharmacia), 1 mg of wheat germ agglutinin SPA beads (PVT based, by Amersham Pharmacia) and each test compound were suspended in an NC buffer (50 mM Hepes, 10 mM sodium chloride, 1 mM magnesium chloride, 2.5 mM calcium chloride, 0.1% BSA, 0.025% bacitracin, pH 7.4) and incubated at 37° C. for 60 minutes, and then the radioactivity of the culture was determined.

Usually IC50 stands for the concentration needed to halve the response being measured. `Cl.O[C@H]1C[C@H](CN2CC[C@H](c3ccc(F)cc3Cl)[C@@H](O)C2)Cc2cccnc21` [Example 33, (6R,8S)-6-[(3R,4R)-4-(2-chloro-4-fluorophenyl)-3-hydroxypiperidin-1-ylmethyl]-5,6,7,8-tetrahydroquinolin-8-ol monohydrochloride]: the IC50 at nociceptin receptor ORL1 [1] stood at 5.9 nM; at nociceptin receptor ORL1 [2], 9 nM.
